# Source: US6355624B1, “Measurement of plasma volume” (University Wales College of Medicine, priority 1997, dated 2002)
# Like-named read-outs stand apart in the source and are kept apart here.
# How the values were obtained:
# [1] = rabbit, in vivo
# [2] = parameters: species or system piglets; settings: in vivo
# Text: The three preparations were named: The volume of distribution [Vd] and complete pharmacokinetic profiles for the elimination of these three materials was studied in healthy and mature rabbits, healthy and anaesthetised new-born piglets and anaesthetised new-born piglets with an acute septicaemia induced by administration of Escherichia Coli. The effect of the original dose on kinetic parameters for Elohaes™ and hmw-Elohaes™ was examined in mature rabbits only. The Rowland two-compartment open model was used, with the central compartment being plasma and the peripheral compartment being interstitial water. Elimination was considered to occur from a part of this peripheral compartment. This model is expressed diagrammatically in FIG. 1. […] The rate constant k3 is the proportion of material, in interstitial water, being irreversibly eliminated. The parameters of this model, are related to the bi-exponential mathematical model described earlier by: [formula] […] This ratio can be estimated from [(C0-C60)/C60] where C60 is the concentration after 60 minutes and C0 is the concentration at zero time. The following Table 21 summarises the information from piglets according to these three principles.
# [3] = parameters: species or system rabbits; settings: rabbit, in vivo
# Text: The three preparations were named: The volume of distribution [Vd] and complete pharmacokinetic profiles for the elimination of these three materials was studied in healthy and mature rabbits, healthy and anaesthetised new-born piglets and anaesthetised new-born piglets with an acute septicaemia induced by administration of Escherichia Coli. The effect of the original dose on kinetic parameters for Elohaes™ and hmw-Elohaes™ was examined in mature rabbits only. The Rowland two-compartment open model was used, with the central compartment being plasma and the peripheral compartment being interstitial water. Elimination was considered to occur from a part of this peripheral compartment. This model is expressed diagrammatically in FIG. 1. […] The rate constant k3 is the proportion of material, in interstitial water, being irreversibly eliminated. The parameters of this model, are related to the bi-exponential mathematical model described earlier by: [formula]
substance,measurement,setting,value
Fluorescein Isotuiocyanate (FITC) Labelled Hydroxyethyl Starch (HES) [FITC-Elohaes],volume of distribution,[1],0.0445 L/kg
same,k1,[2],0.029 min⁻¹
same,k1/k2,[2],1.12
same,k2,[2],0.026 min⁻¹
same,k3,[2],0.0046 min⁻¹
same,k3,[2]; 1 mg/kg,0.0046 min⁻¹
same,Vd,[3],59.5 ± 1.20
same,k1,[3],0.0157 min⁻¹
same,k1/k2,[3],1.32
same,k2,[3],0.0133 min⁻¹
same,Vd & SEM,[3]; 0.15 mg/kg,0.0604 ± 0.0018 L/kg
same,k1,[3]; 0.15 mg/kg,0.0163 min⁻¹
same,k2,[3]; 0.15 mg/kg,0.0140 min⁻¹
same,k3,[3]; 0.15 mg/kg,0.00128 min⁻¹
same,Vd & SEM,[3]; 0.56 mg/kg,0.0521 ± 0.0018 L/kg
same,k1,[3]; 0.56 mg/kg,0.0122 min⁻¹
same,k2,[3]; 0.56 mg/kg,0.0085 min⁻¹
same,k3,[3]; 0.56 mg/kg,0.0009 min⁻¹
same,Vd & SEM,[3]; 1.95 mg/kg,0.0467 ± 0.0025 L/kg
same,k1,[3]; 1.95 mg/kg,0.0199 min⁻¹
same,k2,[3]; 1.95 mg/kg,0.096 min⁻¹
same,k3,[3]; 1.95 mg/kg,0.00124 min⁻¹
same,Vd & SEM,[3]; 16.6 mg/kg,0.041 ± 0.003 L/kg
same,k1,[3]; 16.63 mg/kg,0.0145 min⁻¹
same,k2,[3]; 16.63 mg/kg,0.0107 min⁻¹
same,k3,[3]; 16.63 mg/kg,0.0012 min⁻¹
